What all share (test): ITC of macrodomain:ADP-ribose peptide binding
The target in one assay is PARP14 MD1 (Homo sapiens, UniProt Q460N5). To be noted: read-out: PARP14 MD1/ADP-ribose peptide KD.
The target in another assay is PARP14 MD2 (Homo sapiens, UniProt Q460N5). The note with it: read-out: PARP14 MD2/ADP-ribose peptide KD.
The next assay has as its target PARP14 MD3 (Homo sapiens, UniProt Q460N5). To be noted: read-out: PARP14 MD3/ADP-ribose peptide KD.

Protein sequences, listed by entry. Tags and fused reporters are not part of them. Residues count along the entry.
UniProt Q460N5, 791-978 limits assumed: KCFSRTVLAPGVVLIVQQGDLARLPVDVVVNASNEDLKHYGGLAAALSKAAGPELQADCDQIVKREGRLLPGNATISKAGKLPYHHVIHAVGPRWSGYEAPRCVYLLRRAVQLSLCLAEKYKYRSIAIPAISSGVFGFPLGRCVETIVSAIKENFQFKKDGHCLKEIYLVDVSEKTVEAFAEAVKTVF
UniProt Q460N5, 1003-1190 limits assumed: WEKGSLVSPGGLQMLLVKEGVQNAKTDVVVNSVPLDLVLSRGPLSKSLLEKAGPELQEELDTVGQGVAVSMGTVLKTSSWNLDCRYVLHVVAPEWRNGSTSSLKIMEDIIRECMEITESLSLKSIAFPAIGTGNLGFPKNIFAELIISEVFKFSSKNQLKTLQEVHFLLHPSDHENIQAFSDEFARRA
UniProt Q460N5, 1216-1387 limits assumed: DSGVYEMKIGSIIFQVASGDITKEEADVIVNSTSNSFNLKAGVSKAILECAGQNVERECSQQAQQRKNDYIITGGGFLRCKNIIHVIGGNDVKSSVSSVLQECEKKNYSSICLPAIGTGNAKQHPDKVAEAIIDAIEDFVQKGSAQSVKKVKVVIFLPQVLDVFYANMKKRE

Consider `Nc1ncnc2c1ncn2[C@@H]1O[C@H](COP(=O)(O)OP(=O)(O)OC[C@H]2OC(O)[C@H](O)[C@@H]2O)[C@@H](O)[C@H]1O` (stereo partly drawn), for which the Kd at PARP14 MD1 was found to be 137 µM; at PARP14 MD2, 6.8 µM; on PARP14 MD3, 15 µM.

Values taken from article PMC6008491, “Discovery of a novel allosteric inhibitor scaffold for polyadenosine-diphosphate-ribose polymerase 14 (PARP14) macrodomain 2” (Bioorganic & Medicinal Chemistry, 2018).
